According to ChEMBL document CHEMBL1132276, “Development of predictive retention-activity relationship models of tricyclic antidepressants by micellar liquid chromatography” (J Med Chem, 1999):

Molecular target: Serotonin (5-HT) receptor
Assay: Compound was tested for its inhibitory activity against 5-hydroxytryptamine receptor
Type: protein assay, Rattus norvegicus

IC50: 170 nM
SMILES: CNCCC=C1c2ccccc2CCc2ccccc21 [NORTRIPTYLINE]
